This passage reports Ki results from ChEMBL document CHEMBL4196195, “( R)- N-(1-Methyl-2-hydroxyethyl)-13-( S)-methyl-arachidonamide (AMG315): A Novel Chiral Potent Endocannabinoid Ligand with Stability to Metabolizing Enzymes” (J Med Chem, 2018).

Amino acid sequences for entries named in this document (tags omitted).
UniProt P34972, whole entry: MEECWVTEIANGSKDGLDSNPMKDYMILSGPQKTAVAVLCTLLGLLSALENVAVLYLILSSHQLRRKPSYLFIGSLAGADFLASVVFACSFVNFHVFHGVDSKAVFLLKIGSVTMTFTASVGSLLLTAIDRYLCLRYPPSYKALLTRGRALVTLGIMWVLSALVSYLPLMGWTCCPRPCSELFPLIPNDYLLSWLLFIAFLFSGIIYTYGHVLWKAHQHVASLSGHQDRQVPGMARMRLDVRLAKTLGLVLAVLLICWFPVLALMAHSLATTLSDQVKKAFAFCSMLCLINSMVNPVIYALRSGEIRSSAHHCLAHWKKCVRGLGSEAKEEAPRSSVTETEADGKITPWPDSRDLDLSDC

The Ki is a dissociation constant, usually derived from enzyme kinetics or from competition with a known ligand. A higher Ki goes with weaker binding.

The target of this assay is Cannabinoid receptor 2 (Homo sapiens, UniProt P34972). The assay is described as follows: Displacement of [3H]CP-55,940 from human CB2 receptor expressed in HEK293 cell membranes in absence of FAAH inhibitor PMSF by radioligand binding assay. Background: Loss of bound radioactivity is the signal in a displacement assay; it reports binding, not function.

The compound `CCCCC/C=C\C/C=C\C/C=C\C/C=C\CCCC(=O)NCCO` [ANANDAMIDE] yielded a Ki of 160 nM.
